Measured values as given in patent publication US6841682B2, “Heterocycles useful in the treatment of benign prostatic hyperplasia” (Janseen Pharmaceutica N.V., priority 1997, dated 2005).

Sequences of proteins named here, by UniProt entry; tags and fusion partners are left off.
UniProt P35348, whole entry: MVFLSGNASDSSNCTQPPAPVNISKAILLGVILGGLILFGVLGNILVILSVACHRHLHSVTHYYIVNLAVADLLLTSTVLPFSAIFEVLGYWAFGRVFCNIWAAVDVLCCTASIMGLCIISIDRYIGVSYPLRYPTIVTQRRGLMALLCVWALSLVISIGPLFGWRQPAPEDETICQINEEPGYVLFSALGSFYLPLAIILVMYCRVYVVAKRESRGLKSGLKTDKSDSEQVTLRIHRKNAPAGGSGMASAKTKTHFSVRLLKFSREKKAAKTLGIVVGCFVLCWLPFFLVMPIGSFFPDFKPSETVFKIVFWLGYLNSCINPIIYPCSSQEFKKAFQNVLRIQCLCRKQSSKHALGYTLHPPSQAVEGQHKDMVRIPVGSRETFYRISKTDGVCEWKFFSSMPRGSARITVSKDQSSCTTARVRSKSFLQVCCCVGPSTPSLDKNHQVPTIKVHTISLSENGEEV
UniProt P35368, whole entry: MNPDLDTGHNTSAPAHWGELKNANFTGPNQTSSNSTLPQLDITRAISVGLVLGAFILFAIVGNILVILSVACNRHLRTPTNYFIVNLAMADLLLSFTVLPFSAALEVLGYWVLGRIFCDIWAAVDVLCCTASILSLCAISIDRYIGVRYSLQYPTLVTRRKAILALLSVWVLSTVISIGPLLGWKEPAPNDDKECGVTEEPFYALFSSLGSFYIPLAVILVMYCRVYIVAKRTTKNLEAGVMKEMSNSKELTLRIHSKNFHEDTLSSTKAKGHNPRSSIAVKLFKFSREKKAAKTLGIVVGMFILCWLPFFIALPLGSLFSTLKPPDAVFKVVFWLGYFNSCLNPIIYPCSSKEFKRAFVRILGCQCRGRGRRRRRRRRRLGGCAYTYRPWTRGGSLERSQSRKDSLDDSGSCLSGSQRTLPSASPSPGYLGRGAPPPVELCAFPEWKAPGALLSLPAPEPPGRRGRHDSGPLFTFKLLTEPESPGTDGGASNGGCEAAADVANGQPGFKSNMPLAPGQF
UniProt P25100, whole entry: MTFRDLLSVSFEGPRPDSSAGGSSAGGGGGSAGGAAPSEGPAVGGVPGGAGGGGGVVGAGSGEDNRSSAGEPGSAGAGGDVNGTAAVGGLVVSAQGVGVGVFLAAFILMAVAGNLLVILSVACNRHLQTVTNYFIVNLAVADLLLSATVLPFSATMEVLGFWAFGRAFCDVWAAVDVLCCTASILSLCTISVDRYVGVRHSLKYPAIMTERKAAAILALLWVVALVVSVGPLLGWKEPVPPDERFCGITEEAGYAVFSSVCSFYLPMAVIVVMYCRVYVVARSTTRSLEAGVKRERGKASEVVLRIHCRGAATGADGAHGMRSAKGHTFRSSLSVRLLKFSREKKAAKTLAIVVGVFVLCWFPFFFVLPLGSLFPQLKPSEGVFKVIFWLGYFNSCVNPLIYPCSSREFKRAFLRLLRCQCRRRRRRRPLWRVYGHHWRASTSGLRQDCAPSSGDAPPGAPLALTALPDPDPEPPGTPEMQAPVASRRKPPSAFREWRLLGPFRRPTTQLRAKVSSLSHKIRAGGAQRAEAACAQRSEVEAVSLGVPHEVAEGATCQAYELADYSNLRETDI

Legend:
[1] = target: α1a-AR (Homo sapiens, UniProt P35348); assay: radioligand ([125I]-HEAT) receptor binding assay, COS cell membranes, α1a-AR
[2] = target: α1b-AR (Homo sapiens, UniProt P35368); assay: radioligand ([125I]-HEAT) receptor binding assay, COS cell membranes, α1b-AR
[3] = target: α1d-AR (Homo sapiens, UniProt P25100); assay: radioligand ([125I]-HEAT) receptor binding assay, COS cell membranes, α1d-AR; conditions: read-out: α1d IC50, Tables A-J, [125I]-HEAT 50 pM
[4] = target: α1c (Homo sapiens, UniProt P25100); assay: α1c screen (as named in the preparative examples); conditions: read-out: activity in the α1c screen; stated in the preparative example
Source text: The first assay tested the ability of compounds of Formula I to bind to membrane bound receptors α1a-AR, α1b-AR and α1d-AR.
The DNA sequences of the three cloned human α1-AR subtypes have been published. […] We used published DNA sequence information to design-primers for use in RT-PCR amplification of each subtype to obtain cloned cDNAs. Human poly A+ RNA was obtained from commercially available sources and included hippocampus and prostate samples, sources which have been cited in the literature. For the primary screen a radio ligand binding assay was used which employed membrane preparations from cells expressing the individual cloned receptor cDNAs. Radiolabeled ligands with binding activity on all three subtypes (non-selective) are commercially available ([125I]-HEAT, [3H]-prazosin). […]
The three α1-AR subtypes (a, b, d) were transfected into COS cells using a standard DEAE-dextran procedure with a chloroquine shock. […] The protein concentration was determined following membrane solubilization with TritonX-100.
The ability of each compound to bind to each of the α1-AR subtypes was assessed in a receptor binding assay. […] Scintillation fluid (25 mL) was added to each well, and the filter plate was counted in a Packard Topcount scintillation counter. Data was analyzed using GraphPad Prism software.

[5] = read-out: α1a IC50, Tables A-J, [125I]-HEAT 50 pM, COS membranes
[6] = read-out: α1b IC50, Tables A-J, [125I]-HEAT 50 pM, COS membranes

IC50 [1, 5]	IC50 [2, 6]	IC50 [3]	Compound	IC50 ([1]; read-out: activity in the α1a screen, stated in the preparative example)	IC50 ([2]; read-out: activity in the α1b screen, stated in the preparative example)	IC50 [4]
147000 pM	3.32e+06 pM	291000 pM	CC(C)Oc1ccccc1N1CCN(Cc2cccc(CN3C(=O)CC4(CCCC4)CC3=O)n2)CC1	–	–	–
163000 pM	> 1e+07 pM	> 8.38e+06 pM	CC(C)Oc1ccccc1N1CCN(Cc2nc(CN3C(=O)c4ccccc4C3=O)co2)CC1	–	–	–
595000 pM	> 1e+07 pM	> 8.28e+06 pM	CC(C)Oc1ccccc1N1CCN(Cc2nc(CN3C(=O)CC4(CCCC4)CC3=O)co2)CC1	–	–	–

Compound	IC50 [1, 5]	IC50 [2, 6]	IC50 [3]	IC50 ([1]; read-out: activity in the α1a screen, stated in the preparative example)	IC50 ([2]; read-out: activity in the α1b screen, stated in the preparative example)	IC50 [4]
CC(C)Oc1ccccc1N1CCN(Cc2cc(CN3CCCCC3=O)n(C)n2)CC1	8800 pM	642000 pM	130000 pM	317000 pM	> 1e+07 pM	1270 nM
COC(=O)[C@@H]1CCCN1Cc1ccc(CN2CCN(c3ccccc3OC)CC2)s1	23000 pM	1.19e+06 pM	30000 pM	–	–	–

Read-outs that look alike come from different tables or passages of the source.
